Assay results published in US8748375B2 (Amylin Pharmaceuticals, LLC, priority 2009, dated 2014).

How the values were obtained:
[1] = tested on: insulin-stimulated glycogen synthesis in soleus muscle; assay: Soleus Muscle Assay; assay type: cell-based, rat
Description: Concentrations of peptide dissolved in carrier-free buffers are determined by quantitative amino acid analysis, as described therein. The ability of compounds to act as agonists in this assay is determined by measuring EC50 values. […] Similar results were obtained with other agonist compounds listed above.

amylin receptors = target: T1, amylin receptors (Rattus norvegicus, UniProt P32214+Q9JJ74); assay: Receptor Binding Assay
T1 construct: This basal forebrain tissue, containing the nucleus accumbens and surrounding regions, was weighed and homogenized; from tissue; host or cells: rat basal forebrain (nucleus accumbens and surrounding regions) membranes
T1 sequence (P32214 25-516): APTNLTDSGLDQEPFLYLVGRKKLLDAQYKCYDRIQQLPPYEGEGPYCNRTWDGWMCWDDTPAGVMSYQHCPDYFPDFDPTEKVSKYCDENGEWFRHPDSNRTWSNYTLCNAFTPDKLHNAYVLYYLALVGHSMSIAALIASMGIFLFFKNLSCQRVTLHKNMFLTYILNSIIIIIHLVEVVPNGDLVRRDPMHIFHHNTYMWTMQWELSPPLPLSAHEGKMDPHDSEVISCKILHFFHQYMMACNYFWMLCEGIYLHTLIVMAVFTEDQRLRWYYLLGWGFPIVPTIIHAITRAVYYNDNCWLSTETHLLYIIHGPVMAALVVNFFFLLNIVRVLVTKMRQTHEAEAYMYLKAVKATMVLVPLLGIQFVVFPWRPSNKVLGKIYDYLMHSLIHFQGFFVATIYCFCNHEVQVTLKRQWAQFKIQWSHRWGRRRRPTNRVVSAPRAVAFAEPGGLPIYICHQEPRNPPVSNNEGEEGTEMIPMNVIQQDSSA
T1 sequence (Q9JJ74 27-148): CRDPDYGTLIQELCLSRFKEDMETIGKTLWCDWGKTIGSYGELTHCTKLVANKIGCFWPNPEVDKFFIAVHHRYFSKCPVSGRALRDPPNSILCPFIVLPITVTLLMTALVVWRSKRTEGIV
Excerpt: A preferred source of the membrane preparations used in the assay is the basal forebrain which comprises membranes from the nucleus accumbens and surrounding regions.
Unlabeled peptides were obtained from BACHEM Inc. (Torrance, Calif.) and Peninsula Laboratories (Belmont, Calif.).
Male Sprague-Dawley rats (200-250) grams were sacrificed by decapitation. Brains were removed to cold phosphate-buffered saline (PBS). From the ventral surface, cuts were made rostral to the hypothalamus, bounded laterally by the olfactory tracts and extending at a 45° angle medially from these tracts. This basal forebrain tissue, containing the nucleus accumbens and surrounding regions, was weighed and homogenized in ice-cold 20 mM HEPES buffer (20 mM HEPES acid, pH adjusted to 7.4 with NaOH at 23° C.). […] The final membrane pellet was resuspended in 20 mM HEPES buffer containing 0.2 mM phenylmethylsulfonyl fluoride (PMSF).
Solutions were incubated for 60 minutes at 23° C. […] Filters were washed immediately before filtration with 5 ml cold PBS, and immediately after filtration with 15 ml cold PBS.

| SMILES | EC50 ([1]; […] insulin) [nM] | amylin agonist activity (in words) [1] | antagonist activity in soleus muscle assay (in words) [1] | receptor binding activity (in words) (amylin receptors) |
| --- | --- | --- | --- | --- |
| CC[C@H](C)[C@H](NC(=O)[C@H](C)NC(=O)CNC(=O)[C@H](Cc1ccccc1)NC(=O)[C@H](CC(N)=O)NC(=O)[C@H](CC(N)=O)NC(=O)[C@H](CO)NC(=O)[C@H](CO)NC(=O)[C@H](Cc1c[nH]cn1)NC(=O)[C@@H](NC(=O)[C@H](CC(C)C)NC(=O)[C@H](Cc1ccccc1)NC(=O)[C@H](CC(N)=O)NC(=O)[C@H](C)NC(=O)[C@H](CC(C)C)NC(=O)[C@H](CCCNC(=N)N)NC(=O)[C@H](CCC(N)=O)NC(=O)[C@@H](NC(=O)[C@H](C)NC(=O)[C@@H]1CSSC[C@H](N)C(=O)N[C@@H](CC(N)=O)C(=O)N[C@@H]([C@@H](C)O)C(=O)N[C@@H](C)C(=O)N[C@@H]([C@@H](C)O)C(=O)N1)[C@@H](C)O)C(C)C)C(=O)N[C@@H](CC(C)C)C(=O)N[C@@H](CO)C(=O)N[C@@H](CO)C(=O)N[C@H](C(=O)N[C@@H](CC(N)=O)C(=O)N[C@H](C(=O)NCC(=O)N[C@@H](CO)C(=O)N[C@@H](CC(N)=O)C(=O)N[C@H](C(=O)N[C@@H](Cc1ccc(O)cc1)C(N)=O)[C@@H](C)O)C(C)C)[C@@H](C)O [^2, 37h-Amylin] | 1.63 | – | – | – |
| CC[C@H](C)[C@H](NC(=O)[C@@H]1CCCN1C(=O)CNC(=O)[C@H](Cc1ccccc1)NC(=O)[C@H](CC(N)=O)NC(=O)[C@H](CC(N)=O)NC(=O)[C@H](CO)NC(=O)[C@H](CO)NC(=O)[C@H](CCCNC(=N)N)NC(=O)[C@@H](NC(=O)[C@H](CC(C)C)NC(=O)[C@H](Cc1ccccc1)NC(=O)[C@H](CC(N)=O)NC(=O)[C@H](C)NC(=O)[C@H](CC(C)C)NC(=O)[C@H](CCCNC(=N)N)NC(=O)[C@H](CCC(N)=O)NC(=O)[C@@H](NC(=O)[C@H](C)NC(=O)[C@@H]1CSSC[C@H](NC(=O)[C@@H](N)CCCCN)C(=O)N[C@@H](CC(N)=O)C(=O)N[C@@H]([C@@H](C)O)C(=O)N[C@@H](C)C(=O)N[C@@H]([C@@H](C)O)C(=O)N1)[C@@H](C)O)C(C)C)C(=O)N[C@@H](CC(C)C)C(=O)N1CCC[C@H]1C(=O)N1CCC[C@H]1C(=O)N[C@H](C(=O)N[C@@H](CC(N)=O)C(=O)N[C@H](C(=O)NCC(=O)N[C@@H](CO)C(=O)N[C@@H](CC(N)=O)C(=O)N[C@H](C(=O)N[C@@H](Cc1ccc(O)cc1)C(N)=O)[C@@H](C)O)C(C)C)[C@@H](C)O [^18Arg^25, 28, 29Pro-h-Amylin] | – | act as amylin agonists | negligible antagonist activity | compete with amylin |
| CC[C@H](C)[C@H](NC(=O)[C@@H]1CCCN1C(=O)CNC(=O)[C@H](Cc1ccccc1)NC(=O)[C@H](CC(N)=O)NC(=O)[C@H](CC(N)=O)NC(=O)[C@H](CO)NC(=O)[C@H](CO)NC(=O)[C@H](CCCNC(=N)N)NC(=O)[C@@H](NC(=O)[C@H](CC(C)C)NC(=O)[C@H](Cc1ccccc1)NC(=O)[C@H](CC(N)=O)NC(=O)[C@H](C)NC(=O)[C@H](CC(C)C)NC(=O)[C@H](CCCNC(=N)N)NC(=O)[C@H](CCC(N)=O)NC(=O)[C@@H](NC(=O)[C@H](C)NC(=O)[C@@H]1CSSC[C@H](NC(=O)[C@@H](N)CCCCN)C(=O)N[C@@H](CC(N)=O)C(=O)N[C@@H]([C@@H](C)O)C(=O)N[C@@H](C)C(=O)N[C@@H]([C@@H](C)O)C(=O)N1)[C@@H](C)O)C(C)C)C(=O)N[C@@H](CC(C)C)C(=O)N1CCC[C@H]1C(=O)N[C@@H](CO)C(=O)N[C@H](C(=O)N[C@@H](CC(N)=O)C(=O)N[C@H](C(=O)NCC(=O)N[C@@H](CO)C(=O)N[C@@H](CC(N)=O)C(=O)N[C@H](C(=O)N[C@@H](Cc1ccc(O)cc1)C(N)=O)[C@@H](C)O)C(C)C)[C@@H](C)O [^18Arg^25, 28Pro-h-Amylin] | – | act as amylin agonists | negligible antagonist activity | compete with amylin |
| CC[C@H](C)[C@H](NC(=O)[C@@H]1CCCN1C(=O)CNC(=O)[C@H](Cc1ccccc1)NC(=O)[C@H](CC(N)=O)NC(=O)[C@H](CC(N)=O)NC(=O)[C@H](CO)NC(=O)[C@H](CO)NC(=O)[C@H](Cc1c[nH]cn1)NC(=O)[C@@H](NC(=O)[C@H](CC(C)C)NC(=O)[C@H](Cc1ccccc1)NC(=O)[C@H](CC(N)=O)NC(=O)[C@H](C)NC(=O)[C@H](CC(C)C)NC(=O)[C@H](CCCNC(=N)N)NC(=O)[C@H](CCC(N)=O)NC(=O)[C@@H](NC(=O)[C@H](C)NC(=O)[C@@H]1CSSC[C@H](NC(=O)[C@@H](N)CCCCN)C(=O)N[C@@H](CC(N)=O)C(=O)N[C@@H]([C@@H](C)O)C(=O)N[C@@H](C)C(=O)N[C@@H]([C@@H](C)O)C(=O)N1)[C@@H](C)O)C(C)C)C(=O)N[C@@H](CC(C)C)C(=O)N1CCC[C@H]1C(=O)N1CCC[C@H]1C(=O)N[C@H](C(=O)N[C@@H](CC(N)=O)C(=O)N[C@H](C(=O)NCC(=O)N[C@@H](CO)C(=O)N[C@@H](CC(N)=O)C(=O)N[C@H](C(=O)N[C@@H](Cc1ccc(O)cc1)C(N)=O)[C@@H](C)O)C(C)C)[C@@H](C)O [^25, 28, 29Pro-h-Amylin] | – | – | – | compete with amylin |
| CC(C)C[C@H](NC(=O)[C@H](CCCNC(=N)N)NC(=O)[C@H](CCC(N)=O)NC(=O)[C@@H](NC(=O)[C@H](C)NC(=O)[C@@H]1CSSC[C@H](NC(=O)[C@@H](N)CCCCN)C(=O)N[C@@H](CC(N)=O)C(=O)N[C@@H]([C@@H](C)O)C(=O)N[C@@H](C)C(=O)N[C@@H]([C@@H](C)O)C(=O)N1)[C@@H](C)O)C(=O)N[C@@H](C)C(=O)N[C@@H](CC(N)=O)C(=O)N[C@@H](Cc1ccccc1)C(=O)N[C@@H](CC(C)C)C(=O)N[C@H](C(=O)N[C@@H](Cc1c[nH]cn1)C(=O)N[C@@H](CO)C(=O)N[C@@H](CO)C(=O)N[C@@H](CC(N)=O)C(=O)N[C@@H](CC(N)=O)C(=O)N[C@@H](Cc1ccccc1)C(=O)NCC(=O)N1CCC[C@H]1C(=O)N[C@H](C(=O)N[C@@H](CC(C)C)C(=O)N1CCC[C@H]1C(=O)N1CCC[C@H]1C(=O)N[C@H](C(=O)N[C@@H](CC(N)=O)C(=O)N[C@H](C(=O)NCC(=O)N[C@@H](CO)C(=O)N[C@@H](CC(N)=O)C(=O)N[C@H](C(=O)N[C@@H](Cc1ccc(O)cc1)C(N)=O)[C@@H](C)O)C(C)C)[C@@H](C)O)C(C)C)C(C)C [^25Pro^26Val^28, 29Pro-h-Amylin] | – | act as amylin agonists | negligible antagonist activity | compete with amylin |
| CC[C@H](C)[C@H](NC(=O)[C@@H]1CCCN1C(=O)CNC(=O)[C@H](Cc1ccccc1)NC(=O)[C@H](CC(N)=O)NC(=O)[C@H](CC(N)=O)NC(=O)[C@H](CO)NC(=O)[C@H](CO)NC(=O)[C@H](CCCNC(=N)N)NC(=O)[C@@H](NC(=O)[C@H](CC(C)C)NC(=O)[C@H](Cc1ccccc1)NC(=O)[C@H](CC(N)=O)NC(=O)[C@H](C)NC(=O)[C@H](CC(C)C)NC(=O)[C@H](CCCNC(=N)N)NC(=O)[C@H](CCC(N)=O)NC(=O)[C@@H](NC(=O)[C@H](C)NC(=O)[C@@H]1CSSC[C@H](N)C(=O)N[C@@H](CC(N)=O)C(=O)N[C@@H]([C@@H](C)O)C(=O)N[C@@H](C)C(=O)N[C@@H]([C@@H](C)O)C(=O)N1)[C@@H](C)O)C(C)C)C(=O)N[C@@H](CC(C)C)C(=O)N1CCC[C@H]1C(=O)N1CCC[C@H]1C(=O)N[C@H](C(=O)N[C@@H](CC(N)=O)C(=O)N[C@H](C(=O)NCC(=O)N[C@@H](CO)C(=O)N[C@@H](CC(N)=O)C(=O)N[C@H](C(=O)N[C@@H](Cc1ccc(O)cc1)C(N)=O)[C@@H](C)O)C(C)C)[C@@H](C)O [des-^1Lys^18Arg^25, 28, 29Pro-h-Amylin] | – | act as amylin agonists | negligible antagonist activity | compete with amylin |
